Here are results for two compounds from ChEMBL document CHEMBL1124379, “Selective and enantiospecific acylation of kappa opioid receptors by (1S,2S)-trans-2-isothiocyanato-N-methyl-N-[2-(1-pyrrolidinyl) cyclohexy l] benzeneacetamide. Demonstration of kappa receptor heterogeneity” (1989).

Chains of the proteins cited; added tags and fusions are not shown. Lines headed by an entry give the natural chain unless they say otherwise; changes in a name come on top.
UniProt Q99720, whole entry, looked up: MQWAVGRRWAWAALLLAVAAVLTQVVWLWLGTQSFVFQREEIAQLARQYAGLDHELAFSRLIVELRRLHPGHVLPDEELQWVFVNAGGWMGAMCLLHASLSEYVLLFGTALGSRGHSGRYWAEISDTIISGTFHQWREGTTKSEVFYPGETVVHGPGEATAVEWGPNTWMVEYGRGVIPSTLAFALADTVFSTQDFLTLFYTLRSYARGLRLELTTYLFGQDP
UniProt P41144: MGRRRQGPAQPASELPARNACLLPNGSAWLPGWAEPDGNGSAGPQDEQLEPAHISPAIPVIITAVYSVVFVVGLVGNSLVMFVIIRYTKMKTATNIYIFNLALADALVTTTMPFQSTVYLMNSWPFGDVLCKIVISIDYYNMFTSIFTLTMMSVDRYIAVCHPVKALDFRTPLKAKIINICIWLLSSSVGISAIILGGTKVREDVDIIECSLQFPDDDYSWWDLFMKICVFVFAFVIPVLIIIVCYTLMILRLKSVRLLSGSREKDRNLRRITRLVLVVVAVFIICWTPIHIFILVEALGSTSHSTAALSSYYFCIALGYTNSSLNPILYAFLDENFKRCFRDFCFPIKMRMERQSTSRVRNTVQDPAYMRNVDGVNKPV
UniProt P97266, whole entry, looked up: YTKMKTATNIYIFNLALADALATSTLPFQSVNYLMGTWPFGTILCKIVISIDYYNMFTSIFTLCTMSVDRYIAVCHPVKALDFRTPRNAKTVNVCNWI

For assay [1], the target named is Sigma non-opioid intracellular receptor 1 (Homo sapiens) (UniProt Q99720). In words: In vitro inhibition for opioid binding site in guinea pig brain membrane using [3H]DADLE as radioligand. Particulars: Cavia porcellus.
Assay [2] has as its target Kappa-type opioid receptor (Cavia porcellus) (UniProt P41144). Briefly: In vitro inhibition for opioid binding site in guinea pig brain membrane using [3H]U-69593 as radioligand.
For assay [3], the target named is Mu-type opioid receptor (Cavia porcellus) (UniProt P97266). Briefly: In vitro inhibition for Mu opioid receptor binding site in guinea pig brain membrane using [3H]-FOXY as radioligand.
Assay [4] has as its target Kappa-type opioid receptor (Cavia porcellus) (UniProt P41144). Briefly: In vitro inhibition for Opioid receptor kappa 1 binding site in guinea pig brain membrane using [3H]bremazocine as radioligand.
For assay [5], the target named is Mu-type opioid receptor (Cavia porcellus) (UniProt P97266). Briefly: Percent inhibition of binding of selective kappa agonist to that of control in guinea pig brain membrane using [3H]FOXY as radioligand. The arrangement: scale not given: the % may be the effect or the level left.
For assay [6], the target named is Sigma non-opioid intracellular receptor 1 (Homo sapiens) (UniProt Q99720). Briefly: Percent inhibition of binding of selective kappa agonist to that of control in guinea pig brain membrane using [3H]DADLE as radioligand. The arrangement: scale not given: the % may be the effect or the level left. Particulars: Cavia porcellus.
For assay [7], the target named is Kappa-type opioid receptor (Cavia porcellus) (UniProt P41144). Briefly: Percent inhibition of binding of selective kappa agonist to that of control in guinea pig brain membrane using [3H]U-69593 as radioligand. Details: scale not given: the % may be the effect or the level left.
Assay [8] shares this target. In words: Percent inhibition of binding of selective kappa agonist to that of control in guinea pig brain membrane using [3H]bremazocine as radioligand. Details: scale not given: the % may be the effect or the level left.
For assay [9], the target named is Mu-type opioid receptor (Cavia porcellus) (UniProt P97266). In words: In vitro inhibition for opioid binding site in guinea pig brain membrane using [3H]FOXY as radioligand.
Assay [10] deals with Kappa-type opioid receptor (Cavia porcellus) (UniProt P41144). In words: In vitro inhibition for Opioid receptor kappa 1 binding site in guinea pig brain membrane using [3H]U-69593 as radioligand.

In the case of `CN(C(=O)Cc1ccccc1N=C=S)[C@@H]1CCCC[C@H]1N1CCCC1`, the Specific binding in [1] is 24.4 fM/mg; in assay [2], 14.5 fM/mg; in [3] it was 96.8 fM/mg; in [4] it was 49.9 fM/mg. Also, the Activity in assay [5] came to 110%; in assay [6], 89%; in [7] it was 95.9%; in assay [8], 69%.
Turning to `CN(C(=O)Cc1ccccc1N=C=S)[C@H]1CCCC[C@@H]1N1CCCC1`, the Specific binding in [9] was 86 fM/mg; in assay [1], 41.5 fM/mg; in [2], 1.7 fM/mg; in assay [10], 56.4 fM/mg. Besides, the Activity was 119% in [5], 100% in assay [6], 11.2% in assay [7] and 97.6% in assay [8].
